Experiment [1] has as its system Rattus norvegicus. Kind of experiment: Effect on heart rate in anesthetized Wistar rat assessed as QRS complex time at 1 mg/kg, iv after 1 min by electrocardiography. The experiment is classed as functional.
The subject of experiment [2] is Rattus norvegicus. Kind of experiment: Effect on heart rate in anesthetized Wistar rat assessed as QRS complex time at 1 mg/kg, iv after 15 mins by electrocardiography. In kind it is functional.

As to `COc1ccccc1OCCNCC(O)COc1cccc2[nH]c3ccccc3c12` (configuration not stated) [CARVEDILOL], the results for the Activity in the experiment with Rattus norvegicus [1] and in the experiment on Rattus norvegicus [2] were 22 ms and 23.2 ms, respectively.

For the origin of these results see ChEMBL document CHEMBL1154779, “Synthesis and adrenolytic activity of 1-(1H-indol-4-yloxy)-3-(2-(2-methoxy phenoxy)ethylamino)propan-2-ol analogs and its enantiomers. Part 2” (Eur J Med Chem, 2009).
